According to ChEMBL document CHEMBL3745662, “Preliminary investigation of 6,7-dihydropyrazolo[1,5-a]pyrazin-4-one derivatives as a novel series of mGlu5 receptor positive allosteric modulators with efficacy in preclinical models of schizophrenia” (Bioorg Med Chem Lett, 2016):

Species on record: Homo sapiens
Assay: Selectivity index, ratio of EC50 for antagonist activity at human mGlu3 to EC50 for positive allosteric modulation of human mGlu5

**Q.** For `O=C1c2cc(OCc3ccccc3)nn2CCN1c1ccc(F)cc1`, which Ratio EC50 is on record?
**A.** 21
